Assay results as given in patent US4354977A, “Phosphonothioate immunogens” (dated 1982).

Tested on: antiserum formed in response to the immunogen of Example 4
Assay: Cross-reactions of an antiserum formed in response to the immunogen of Example 4
Details: antiserum to immunogen of Example 4

Row | Compound | % Cross-reaction [%] | % Cross-reaction (no ascorbic acid) [%] | % Cross-reaction (with ascorbic acid) [%]
1 | CC(=O)[C@H]1CC[C@H]2[C@@H]3CCC4=CC(=O)CC[C@]4(C)[C@H]3CC[C@]12C | < 0.1 |  | 
2 | C[C@]12CC[C@H](O[C@@H]3O[C@H](C(=O)O)[C@@H](O)[C@H](O)[C@H]3O)CC1=CC[C@@H]1[C@@H]2CC[C@]2(C)C(=O)CC[C@@H]12 | < 0.1 |  | 
3 | CC(=O)[C@H]1CC[C@H]2[C@@H]3CC=C4C[C@@H](OS(=O)(=O)O)CC[C@]4(C)[C@H]3CC[C@]12C | < 0.1 |  | 
4 | C[C@]12CC[C@@H]3c4ccc(O)cc4CC[C@H]3[C@@H]1CC[C@@H]2O | 0.5 |  | 
5 | C[C@]12CC[C@@H]3c4ccc(OS(=O)(=O)O)cc4CC[C@H]3[C@@H]1CC[C@@H]2O | < 0.1 |  | 
6 | C[C@]12CC[C@@H]3c4ccc(O[C@@H]5O[C@H](C(=O)O)[C@@H](O)[C@H](O)[C@H]5O)cc4CC[C@H]3[C@@H]1CCC2=O | 3.2 |  | 
7 | C[C@]12CCC(=O)C=C1CC[C@@H]1[C@@H]2[C@@H](O)C[C@@]2(C)[C@H]1CC[C@]2(O)C(=O)CO | < 0.1 |  | 
8 | C[C@H](O)[C@H]1CC[C@H]2[C@@H]3CC[C@@H]4C[C@H](O[C@@H]5O[C@H](C(=O)O)[C@@H](O)[C@H](O)[C@H]5O)CC[C@]4(C)[C@H]3CC[C@]12C | < 0.1 |  | 
9 | C[C@]12CC[C@H]3[C@@H](CCC4=CC(=O)CC[C@@]43C)[C@@H]1CC[C@@H]2O | < 0.1 |  | 
10 | C[C@]12CC[C@@H](OS(=O)(=O)O)C[C@@H]1CC[C@@H]1[C@@H]2CC[C@]2(C)C(=O)CC[C@@H]12 | < 0.1 |  | 
11 | C[C@]12CC[C@@H]3c4ccc(OS(=O)(=O)O)cc4CC[C@H]3[C@@H]1CCC2=O | 100 |  | 
12 | C[C@]12CC[C@H](OS(=O)(=O)O)CC1=CC[C@@H]1[C@@H]2CC[C@]2(C)C(=O)CC[C@@H]12 | < 0.1 |  | 
13 | CC(=O)[C@@]1(O)CC[C@H]2[C@@H]3CCC4=CC(=O)CC[C@]4(C)[C@H]3CC[C@@]21C | < 0.1 |  | 
14 | C[C@]12CC[C@@H]3c4ccc(O)cc4CC[C@H]3[C@@H]1CCC2=O | 57 |  | 
15 | C[C@]12CCC(=O)C=C1CC[C@@H]1[C@@H]2CC[C@]2(C)C(=O)CC[C@@H]12 | < 0.1 |  | 
16 | C[C@]12CC[C@@H]3c4cc(O)c(O)cc4CC[C@H]3[C@@H]1CCC2=O |  | 1.1 | 9
17 | C[C@]12CC[C@@H]3c4ccc(O)cc4CC[C@H]3[C@@H]1C[C@@H](O)[C@@H]2O | < 0.1 |  | 
18 | C[C@]12CC[C@H](O)CC1=CC[C@@H]1[C@@H]2CC[C@]2(C)C(=O)CC[C@@H]12 | < 0.1 |  | 
